System: A172 human glioblastoma cell line
Settings: 1 uM or 5 uM TB added to 5 mM TMZ, A172 cells

## TBSA: BSA-conjugated testosterone, membrane impermeable androgen, ligand/activator of the membrane androgen receptor (mAR)
  effect on TMZ cytotoxicity: dramatically enhanced the degree of cytotoxicity
